Assay results taken from patent publication US20070098776A1 (published 2007).
Read-outs that look alike come from different tables or passages of the source.

How the values were obtained:
[1] = target: T1, HLA-A*0202 (human); test: competitive inhibition assay, purified HLA
T1 construct: purified HLA class I molecule

[2] = target: T1, HLA-A*0202; test: competitive inhibition assay, purified HLA; remark: listed apart in the source

YMIMVKCWMI (native HER2/neu peptide) [Her2/neu.952]
IC50 [1]: 307 nM
IC50 [2]: 307 nM
